The target in the assay is Programmed cell death 1 ligand 1 (Homo sapiens) (UniProt Q9NZQ7). The assay is described as follows: Binding affinity to human PD-L1 by MST assay.

The chains behind the UniProt entries cited, without tags or fusion partners.
UniProt Q9NZQ7, whole entry: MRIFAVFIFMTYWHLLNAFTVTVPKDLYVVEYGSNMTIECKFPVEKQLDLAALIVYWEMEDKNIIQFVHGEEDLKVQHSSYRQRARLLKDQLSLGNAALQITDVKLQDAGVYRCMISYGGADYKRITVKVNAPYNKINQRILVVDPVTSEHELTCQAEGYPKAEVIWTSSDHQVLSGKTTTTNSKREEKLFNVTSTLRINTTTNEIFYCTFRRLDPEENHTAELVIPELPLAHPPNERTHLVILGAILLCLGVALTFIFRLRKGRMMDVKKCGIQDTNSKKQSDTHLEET

SMILES strings stand for the structures. Activity calls are given as the source filed them. The calls are words filed in the database; no cut-off is given here.

For `COc1cc(CNCCO)nc(Nc2cccc(O)c2)n1`, the outcome was inactive.

The values are drawn from ChEMBL document CHEMBL5518211, “Design, Synthesis, and Antitumor Activity Evaluation of Novel VISTA Small Molecule Inhibitors” (J Med Chem, 2024).
